# Antibody variant affinities, Ab-14 light chain, assay 1

Target: peptide PDVDLGDISGINAS, taken from heptad repeat 2 (HR2) of SARS-CoV-2 spike.

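AAYL50 was designed without a model: most single CDR substitutions and a random sample of double and triple ones. AlphaSeq pools MATa yeast showing the antibodies with MATalpha yeast showing the peptide. Mating (16 h, 30 °C) was followed by selection of diploids and sequencing of their barcodes. The ratio of observed to expected reads was calibrated, replicate by replicate, on BCL2-family standards whose Kd was known from biolayer interferometry. Each pool was mated in three replicate cultures.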

Parent: Ab-14, a human scFv built as VH, three GGGGS repeats, VL. Only the CDRs of the light chain vary.
VH: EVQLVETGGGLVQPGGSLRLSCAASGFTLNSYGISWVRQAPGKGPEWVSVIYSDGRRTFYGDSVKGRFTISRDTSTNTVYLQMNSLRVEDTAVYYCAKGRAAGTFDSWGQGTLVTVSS
VL: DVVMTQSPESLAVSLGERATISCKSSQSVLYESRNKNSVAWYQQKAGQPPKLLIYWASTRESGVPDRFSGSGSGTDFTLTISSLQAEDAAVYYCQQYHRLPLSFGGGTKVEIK

Variants are written as CDR1, CDR2 and CDR3 of the light chain (limits as in the source). Parent: KSSQSVLYESRNKNSVA, WASTRES, QQYHRLPLS. The Kd shown is the geometric mean over detected replicates; a lower Kd is a better binder. "no signal" marks a missing value. The strain was present, yet no cells mated with the target were sequenced in any replicate, which points to weak or no binding. Empty control strains, which show no peptide, gave a signal in 18% of pairings with library AAYL50; the median was 15 µM and 95% of these signals were weaker than 970 nM. No background was subtracted. Also given: how often the same scFv was detected with the empty control strains.

CDR-L1	CDR-L2	CDR-L3	Kd (apparent)	replicates with signal	control signals
KSSQSVLYESRNTNSVA	WASTRES	QDYHRLPLN	no signal	0/3	0/9
KSSQSVLYESRNKNTVA	DASTRES	QKYHRLPLS	32 µM	1/3	1/9
KHSQSVLYESRNKNSVA	WASTREA	QQYNRLPLS	7.5 nM	3/3	1/9
KSSQSVLYEKRNKNSDA	WASTRES	QVYHRLPLS	1.4 mM	1/3	1/9
KHSQSVLYESRNKNYVA	WACTRES	QQYHRLPLS	no signal	0/3	0/9
KLSQSVLYESRKKNSVA	WASTRES	QQCHRLPLS	no signal	0/3	0/9
KSSHSVLYESKNKNSVA	WASTRES	QQYHRLTLS	81 nM	3/3	1/9
KTSQSVLYESRNKNSVA	WFSTRES	QQYHRLPLS	11 µM	3/3	5/9
KSSQSVLYESRNKNLVA	WASTRES	IQYHMLPLS	no signal	0/3	0/9
KSEQSLLYESRNKNSVA	WASTRES	QQYHRLPLS	2.4 nM	3/3	2/9
KSSQSVLYECRNKNSVA	WASTRES	QQYARLPWS	350 µM	1/3	5/9
KSSQSVLYESRNVNSVA	WASTRES	QQYHRIPCS	140 nM	3/3	1/9
KSSQIVWYESRNKNSVA	WASTREV	QQYHRLPLS	21 nM	3/3	2/9
KSSQSVLYESRNKNSVA	WASTREM	QGYARLPLS	6.3 nM	3/3	3/9
KYSQSVIYESRNKNSVA	WASTRES	QQYHRLPLA	6.8 nM	3/3	3/9
KSNQGVLYESRNKNSVA	WSSTRES	QQYHRLPLS	32 nM	3/3	0/9
KSSQSVLYESRNKNSVI	WASTPES	QQYHRLPLS	no signal	0/3	3/9
KSSQSVLYESRNKNSVE	WAYTRES	VQYHRLPLS	39 µM	1/3	1/9
KSSQCWLYESRNKNSVE	WASTRES	QQYHRLPLS	no signal	0/3	1/9
KSSQSGLYESRNKNSVA	WASTRES	QQQHPLPLS	no signal	0/3	2/9
KSSQSVLYEKINKNSVA	WASTRES	YQYHRLPLS	no signal	0/3	0/9
KSSQSVLYESRNKTSVA	WASTRWS	NQYHRLPLS	no signal	0/3	3/9
KSSQSVLYEHRNKNSVA	VASTRES	QQYHRLRLS	no signal	0/3	2/9
KSSQSVRYESRNKNSVA	WDSTRES	QIYHRLPLS	no signal	0/3	0/9
KSFQSVLYESRNKNSVA	WASTRES	QVYLRLPLS	110 µM	3/3	5/9
KSNQSVLYESRNKNSVD	WAGTRES	QQYHRLPLS	no signal	0/3	0/9
KSSQSVLYSSRNKNSVA	WASGRES	QQYERLPLS	11 µM	2/3	1/9
KKSQSVLYESENKNSVA	WASTRES	QQNHRLPLS	73 nM	3/3	0/9
KSSQSVFYESRNKNSVA	WAGTIES	QQYHRLPLS	690 nM	1/3	1/9
KSSQSVLYELRNKNSVW	WASTRLS	QQYHRLPLS	no signal	0/3	0/9
KSSQSVLSESRNKNSVA	WASRRES	QQYHRLPLS	24 nM	3/3	1/9
KSSQSVLYEARNKNSVA	WAMHRES	QQYHRLPLS	no signal	0/3	2/9
KSSQSHLYESRNKNSVA	WASRRES	QQYHRLPLQ	950 nM	2/3	0/9
KSSQSVLDESRNKNSVA	WASLRES	QQYERLPLS	13 nM	3/3	3/9
KSSQSVAYESRNKNSVQ	WASTRES	QQYIRLPLS	no signal	0/3	1/9
KSLQSVCYESRNKNSVA	WASTRES	QQYHRLPLS	28 nM	3/3	2/9
KSEQSVLYPSRNKNSVA	YASTRES	QQYHRLPLS	6.0 nM	3/3	5/9
KSSQSVLYPSRNKNSVA	WAETEES	QQYHRLPLS	78 µM	1/3	0/9
KSSQSVLYESRNCNSVA	WAMTRES	QQYLRLPLS	68 nM	3/3	4/9
KSSQSPLYESRNKNSVA	WASTRES	QQHHRLKLS	54 nM	3/3	4/9
KSSQSVLYISRQKNSVA	WASTRES	QQYCRLPLS	25 µM	1/3	3/9
KSRQSVLYESRNCNSVA	WASTRES	KQYHRLPLS	1.6 mM	1/3	3/9
KSSQSVLIESRNKNCVA	WASTRES	QQYHRLPLN	620 nM	3/3	3/9
KSSQSVSYEWRNKNSVA	WASTRES	QQYHRLPNS	11 nM	3/3	3/9
KSSQQVLYESWNKNSVA	WASTRES	QKYHRLPLS	22 nM	3/3	1/9
KHSQSVWYESRNKNSVA	WASTRES	QQYHYLPLS	2.2 µM	1/3	0/9
VSSQSVLYEGRNKNSVA	WASTREE	QQYHRLPLS	9.3 nM	3/3	0/9
KSSQSVLYEARNKNSVA	WASTCAS	QQYHRLPLS	640 nM	3/3	1/9
KSSQSVLYCSRNKNSVA	WASTRES	QQYHRIMLS	no signal	0/3	1/9
CSSQSVLYEIRGKNSVA	WASTRES	QQYHRLPLS	no signal	0/3	1/9
KSCQSVLYESRNKNSVA	WARTRES	QQYHRCPLS	no signal	0/3	1/9
KSSQSVVYESRNKNVVA	WASTRES	QQYKRLPLS	no signal	0/3	0/9
KSSMSVLYESRNKNSVA	WASTRHS	QQYHRLPLS	13 nM	3/3	2/9
KSSQSVLYESRNKNSVA	WASCRES	QQYARIPLS	71 nM	3/3	0/9
KSTQSVLYEWRNKNSVA	WASTRES	QQYHRLHLS	no signal	0/3	4/9
KSSQPVLYESRTKNSVA	WASTPES	QQYHRLPLS	980 nM	3/3	1/9
KSSQSVQYESRNKNSVA	WASTRES	QQYHRLALS	7.8 nM	3/3	5/9
KSMQSVDYESRNKNSVA	WAFTRES	QQYHRLPLS	13 nM	3/3	2/9
KSSQGVLYESRNKNSVA	WASTRVW	QQYHRLPLS	13 nM	3/3	1/9
KNSQSVLYFSRNKNSVA	WASTRES	QQYHRTPLS	300 nM	3/3	0/9
KHSQSVLYESRNKNSVA	WAFTRES	QQYHRLPWS	91 µM	1/3	1/9
KSSQSVLYESRNKNSVA	WASTRES	QQYMRLPSS	no signal	0/3	0/9
KSSVSVLYESRNKNSVS	WASTRES	NQYHRLPLS	no signal	0/3	1/9
KSSQSVLYESRNKNSVA	WHSTRES	QQYHSLPAS	12 µM	1/3	3/9
KSSQSVLYESRNMHSVA	WASTRES	QQYHRLPLS	6.6 nM	3/3	4/9
KSSKSVLYERRQKNSVA	WASTRES	QQYHRLPLS	380 nM	3/3	2/9
KSSVSVLYESRRKNSVA	WACTRES	QQYHRLPLS	no signal	0/3	1/9
KSFQSVLYESRNKNSCA	WASTRES	QQYQRLPLS	5.5 µM	1/3	0/9
KSSQSVLYESRNTNSEA	WASTRES	QQYHRLPLS	no signal	0/3	1/9
KSSQSVAYESRVKNSVA	WASTRNS	QQYHRLPLS	11 nM	3/3	4/9

The 6 strongest on average among those seen in every replicate, once more:

CDR-L1	CDR-L2	CDR-L3	Kd (apparent)	replicates with signal	control signals
KSEQSLLYESRNKNSVA	WASTRES	QQYHRLPLS	2.4 nM	3/3	2/9
KSEQSVLYPSRNKNSVA	YASTRES	QQYHRLPLS	6.0 nM	3/3	5/9
KSSQSVLYESRNKNSVA	WASTREM	QGYARLPLS	6.3 nM	3/3	3/9
KSSQSVLYESRNMHSVA	WASTRES	QQYHRLPLS	6.6 nM	3/3	4/9
KYSQSVIYESRNKNSVA	WASTRES	QQYHRLPLA	6.8 nM	3/3	3/9
KHSQSVLYESRNKNSVA	WASTREA	QQYNRLPLS	7.5 nM	3/3	1/9

Reference: Engelhart et al. 2022, doi:10.1038/s41597-022-01779-4. File: FLAb, binding data.